{"source": "paper PMC3198503", "target": "TRC40 (transmembrane domain recognition complex of 40 kDa) (rabbit (endogenous in rabbit reticulocyte lysate))", "assay": "co-IP"}
{"substance": "Sec61βOPG^S77C,L79C, singly PEGylated (1×PEG) (from UniProt P60468 1-96) (natural protein)", "values": [{"measurement": "binding relative to the unmodified protein (fold of the unmodified protein)", "result": 0.5}]}
